The results in this text go back to ChEMBL document CHEMBL2440029, “Discovery and characterization of NVP-QAV680, a potent and selective CRTh2 receptor antagonist suitable for clinical testing in allergic diseases” (Bioorg Med Chem, 2013).

The assay is described as follows: Antagonist activity at CRTh2 receptor in human isolated eosinophil assessed as inhibition of DK-PGD2-induced shape change after 5 mins by flow cytometry.

For orientation: IC50 means the concentration that inhibits the measured activity by half.

On to `Cc1c(CC(=O)O)c2cccnc2n1S(=O)(=O)c1ccc(F)c(F)c1`, for which the concentration for half-maximal inhibition (IC50) was found to be 9 nM.
